Test results: publication PMC10575921 (2023)

Key:
in vivo [1] = details: both, cynomolgus monkey, po
in vivo [2] = details: both, Sprague-Dawley, rat, po
in vivo [3] = details: male, C57BL/6J, mouse, po

CC(C)(C)[C@H](NC(=O)C(F)(F)F)C(=O)N1CC2(C[C@H]1C(=O)N[C@H](C#N)C[C@@H]1CCNC1=O)SCCS2 [compound 9, simnotrelvir]
Tmax (in vivo [1]): 60 min | Tmax (in vivo [1]; 5 mg/kg): 30 min | Tmax (in vivo [2]): 30 min | Tmax (in vivo [2]; 15 mg/kg): 15 min | Tmax (in vivo [3]): 30 min
